{
  "source": "patent US5624932A",
  "about": "(priority 1995, dated 1997)",
  "key": {"[1]": {"test_system": "dorsal root ganglion (DRG) neurons", "details": "for Alteration of action potential duration, opioid at low concentration: < nM; for Alteration of action potential duration, opioid at high concentration: μM"}, "[2]": {"test_system": "chronic opioid-treated DRG neurons", "details": "for effect on APD of chronic DADLE-treated DRG neuron: 1 μM DADLE present"}, "[3]": {"details": "listed as dynorphin (amino acids 1-13)"}, "[4]": {"details": "listed as dynorphin (amino acids 1-17)"}},
  "note": "Where two headings read alike, the source gives them in different places.",
  "data": [
    {"molecule": "CSCC[C@H](NC(=O)[C@H](Cc1ccccc1)NC(=O)CNC(=O)CNC(=O)[C@@H](N)Cc1ccc(O)cc1)C(=O)O", "values": [
      {"measurement": "Alteration of action potential duration, opioid at low concentration", "setting": "[1]", "result": "Prolongation"},
      {"measurement": "Alteration of action potential duration, opioid at high concentration", "setting": "[1]", "result": "Shortening"}
    ]},
    {"molecule": "3-endorphin", "values": [
      {"measurement": "Alteration of action potential duration, opioid at low concentration", "setting": "[1]", "result": "Prolongation"},
      {"measurement": "Alteration of action potential duration, opioid at high concentration", "setting": "[1]", "result": "Shortening"}
    ]},
    {"molecule": "Tyr--Gly--Gly--Phe--Leu--Arg--Arg--Ile--Arg--Pro--Lys--Leu--Lys", "values": [
      {"measurement": "Alteration of action potential duration, opioid at low concentration", "setting": "[1]", "result": "Prolongation"},
      {"measurement": "Alteration of action potential duration, opioid at low concentration", "setting": "[1]; [3]", "result": "excitatory APD-prolonging"},
      {"measurement": "dose-response effect on the APD of naive DRG neurons", "setting": "[1]; fM-μM, FIG. 1, FIG. 2", "result": "dose-dependent prolongation of the APD"},
      {"measurement": "concentration required to shorten the APD", "setting": "[1]; naive, n=35", "result": "ca. μM"},
      {"measurement": "concentration that prolongs the APD of naive DRG neurons", "setting": "[1]; naive, listed as Dyn (1-13)", "result": "fM-nM"},
      {"measurement": "concentration that prolongs the APD of naive DRG neurons", "setting": "[1]; naive, listed as Dyn (amino acid 1-13)", "result": "pM-nM"},
      {"measurement": "Alteration of action potential duration, opioid at high concentration", "setting": "[1]", "result": "Shortening"},
      {"measurement": "Alteration of action potential duration, opioid at high concentration", "setting": "[1]; [3]", "result": "inhibitory APD-shortening"},
      {"measurement": "effect on APD of chronic DADLE-treated DRG neuron", "setting": "[2]; 1 fM", "result": "prolonged"},
      {"measurement": "concentration effective at prolonging the APD after chronic opioid treatment", "setting": "[2]; chronic opioid-treated", "result": "fM"},
      {"measurement": "effect on APD of chronic DADLE-treated DRG neuron", "setting": "[2]; raised to 1 nM and 1 μM", "result": "further prolonged"}
    ]},
    {"molecule": "Tyr--Gly--Gly--Phe--Leu--Arg--Arg--Ile--Arg--Pro--Lys--Leu--Lys--Trp--Asp--Asn--Gln", "values": [
      {"measurement": "Alteration of action potential duration, opioid at low concentration", "setting": "[1]", "result": "Prolongation"},
      {"measurement": "Alteration of action potential duration, opioid at low concentration", "setting": "[1]; [4]", "result": "excitatory APD-prolonging"},
      {"measurement": "Alteration of action potential duration, opioid at high concentration", "setting": "[1]", "result": "Shortening"},
      {"measurement": "Alteration of action potential duration, opioid at high concentration", "setting": "[1]; [4]", "result": "inhibitory APD-shortening"}
    ]}
  ]
}
